Laboratory results as given in ChEMBL document CHEMBL1136776, “Aromatic reduced amide bond peptidomimetics as selective inhibitors of neuronal nitric oxide synthase” (J Med Chem, 2003).

Amino acid sequences for entries named in this document (tags omitted).
UniProt P29476, whole entry: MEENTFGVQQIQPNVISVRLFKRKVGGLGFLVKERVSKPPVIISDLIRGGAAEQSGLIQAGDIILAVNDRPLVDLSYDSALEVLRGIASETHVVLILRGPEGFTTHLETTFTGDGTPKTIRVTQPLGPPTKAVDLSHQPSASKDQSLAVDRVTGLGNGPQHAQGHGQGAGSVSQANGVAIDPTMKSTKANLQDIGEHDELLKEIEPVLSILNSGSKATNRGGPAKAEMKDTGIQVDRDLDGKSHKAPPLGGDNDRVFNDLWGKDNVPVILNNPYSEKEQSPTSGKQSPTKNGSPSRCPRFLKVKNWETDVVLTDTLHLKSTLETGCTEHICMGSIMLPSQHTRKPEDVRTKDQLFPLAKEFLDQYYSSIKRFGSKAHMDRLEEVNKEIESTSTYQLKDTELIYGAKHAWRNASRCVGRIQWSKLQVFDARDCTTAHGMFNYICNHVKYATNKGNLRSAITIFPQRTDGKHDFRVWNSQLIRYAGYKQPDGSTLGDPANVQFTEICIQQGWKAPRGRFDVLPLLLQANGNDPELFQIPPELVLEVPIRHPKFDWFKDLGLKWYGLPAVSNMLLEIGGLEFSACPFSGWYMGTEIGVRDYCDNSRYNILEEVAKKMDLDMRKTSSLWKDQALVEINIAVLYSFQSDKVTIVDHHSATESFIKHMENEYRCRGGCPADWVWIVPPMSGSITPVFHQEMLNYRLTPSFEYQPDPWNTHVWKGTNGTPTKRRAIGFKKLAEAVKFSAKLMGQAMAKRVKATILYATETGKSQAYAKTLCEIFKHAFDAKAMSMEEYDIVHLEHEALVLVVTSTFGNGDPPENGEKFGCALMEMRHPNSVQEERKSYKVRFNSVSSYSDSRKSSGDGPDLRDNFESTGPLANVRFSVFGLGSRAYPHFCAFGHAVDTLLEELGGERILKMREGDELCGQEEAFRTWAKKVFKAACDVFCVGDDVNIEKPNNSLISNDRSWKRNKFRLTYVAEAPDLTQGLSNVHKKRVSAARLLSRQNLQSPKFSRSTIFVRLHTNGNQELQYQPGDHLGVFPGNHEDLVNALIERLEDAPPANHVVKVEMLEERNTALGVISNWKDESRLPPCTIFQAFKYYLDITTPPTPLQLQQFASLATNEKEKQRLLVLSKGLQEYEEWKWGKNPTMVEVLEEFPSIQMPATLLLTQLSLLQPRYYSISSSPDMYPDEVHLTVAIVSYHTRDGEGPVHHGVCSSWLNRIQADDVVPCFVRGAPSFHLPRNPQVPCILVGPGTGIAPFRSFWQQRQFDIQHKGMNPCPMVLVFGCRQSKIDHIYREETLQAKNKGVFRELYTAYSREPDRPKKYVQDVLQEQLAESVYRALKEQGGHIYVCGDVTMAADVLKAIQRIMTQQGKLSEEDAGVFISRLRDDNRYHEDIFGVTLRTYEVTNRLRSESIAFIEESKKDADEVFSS

Key:
[1] = target: Nitric oxide synthase 1 (Rattus norvegicus, UniProt P29476)
[2] = Selectivity ratio of Ki value of eNOS to nNOS
[3] = Selectivity ratio of Ki value of iNOS to nNOS

SMILES	Ki [1] [nM]	Selectivity [2]	Selectivity [3]
N=C(NCCC[C@H](N)CNCCc1ccncc1)N[N+](=O)[O-]	760	–	–
N=C(NCCC[C@H](N)CNCCc1ccccn1)N[N+](=O)[O-]	2210	–	–
NCCc1cccc(NC[C@@H](N)CCC/N=C(\N)N[N+](=O)[O-])c1	–	45.2	118
N/C(=N\CCC[C@H](N)CNCc1ccc(N)cc1)N[N+](=O)[O-]	–	189	204
N/C(=N\CCC[C@H](N)CNCc1ccccc1N)N[N+](=O)[O-]	–	4.24	4.25
